# Columns and labels:
# The chains behind the UniProt entries cited, without tags or fusion partners.
# UniProt Q9NUW8, whole entry: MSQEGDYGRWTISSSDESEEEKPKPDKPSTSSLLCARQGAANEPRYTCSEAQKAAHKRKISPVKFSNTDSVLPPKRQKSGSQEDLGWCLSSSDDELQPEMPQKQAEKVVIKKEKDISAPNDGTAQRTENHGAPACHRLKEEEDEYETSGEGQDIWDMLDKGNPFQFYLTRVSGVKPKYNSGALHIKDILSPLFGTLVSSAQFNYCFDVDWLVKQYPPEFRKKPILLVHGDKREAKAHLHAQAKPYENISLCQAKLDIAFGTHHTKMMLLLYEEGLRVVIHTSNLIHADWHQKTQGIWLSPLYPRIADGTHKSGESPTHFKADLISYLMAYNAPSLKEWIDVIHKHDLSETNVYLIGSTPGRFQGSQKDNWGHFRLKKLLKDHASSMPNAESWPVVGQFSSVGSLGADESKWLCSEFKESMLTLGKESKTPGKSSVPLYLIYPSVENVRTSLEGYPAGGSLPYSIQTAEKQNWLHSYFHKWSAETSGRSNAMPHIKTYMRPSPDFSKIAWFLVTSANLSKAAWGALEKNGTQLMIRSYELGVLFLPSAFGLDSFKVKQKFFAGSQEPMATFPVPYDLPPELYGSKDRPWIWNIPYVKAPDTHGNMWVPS
# [1] = molecular target: T1, Tyrosyl-DNA phosphodiesterase 1 (Homo sapiens, UniProt Q9NUW8); assay: Inhibition of human recombinant Tdp1 using 5'-[32P]-labeled single-stranded DNA oligonucleotide containing 3'-phosphotyrosine as substrate assessed as prevention of generation of oligonucleotide with free 3'-phosphate after 15 mins by PAGE analysis
# [2] = molecular target: T1, Tyrosyl-DNA phosphodiesterase 1; assay: Competitive inhibition of human recombinant Tdp1 after 1 hr by FRET assay
Structure (SMILES),inhibition [1],IC50 [1],further results
NCCCCCCCCCCn1c2c(c3ccccc3c1=O)C(=O)c1ccccc1-2,Dose-dependent effect,–,–
NCCCCCCCCCCCCn1c2c(c3ccccc3c1=O)C(=O)c1ccccc1-2,Dose-dependent effect,–,–
NCCCCCCCCCCCn1c2c(c3ccccc3c1=O)C(=O)c1ccccc1-2,Dose-dependent effect,–,–
NCCCn1c2c(c3ccccc3c1=O)C(=O)c1ccccc1-2,–,–,Ki [2]: 3.19 µM
O=C1c2ccccc2-c2c1c1ccccc1c(=O)n2CCCCCCO,–,> 111 µM,–
O=C1c2ccccc2-c2c1c1ccccc1c(=O)n2CCCCCCCO,–,> 111 µM,–
